Laboratory results reported in patent EP0792649A1, “Treatment of sleep disorders” (ELI LILLY AND COMPANY, priority 1996, dated 1997).

System: 5-HT
Assay: Microdialysis assays of monoamines: 5-HT level in hypothalamus dialysate of conscious rats
Format: in vivo, Sprague-Dawley rats
Conditions: Test 2, average of three or more animals
Method: The tests were carried out as follows.
Sprague-Dawley rats (Harlan or Charles River) weighing 270-300 grams were surgically implanted with microdialysis probes under chloral hydrate/pentobarbital anesthesia (170 and 36 mg/kg i.p. in 30% propylene glycol, 14% ethanol) (Perry and Fuller, Effect of fluoxetine on serotonin and dopamine concentration in rat hypothalamus after administration of fluoxetine plus L-5-hydroxytryptophan, Life Sci., 50, 1683-90 (1992)). A David Kopf stereotaxic instrument was used to implant the probe unilaterally in the hypothalamus at coordinates rostral -1.5 mm, lateral -1.3 mm, and ventral -9.0 mm (Paxinos and Watson, 1986). After a 48 hour recovery period, rats were placed in a large plastic bowl with a mounted liquid swivel system (CMA/120 system for freely moving animals, Bioanalytical Systems, West Lafayette, IN). Filtered artificial cerebrospinal fluid (CSF) (150 mM NaCl, 3.0 mM KCl, 1.7 mM CaCl2, and 0.9 mM MgCl2) was perfused through the probe at a rate of 1.0 µl/min. The output dialysate line was fitted to a tenport HPLC valve with a 20 µl loop. At the end of each 30 minute sampling period, dialysate collected in the loop was injected on an analytical column (Spherisorb 3 µ ODS2, 2X150 mm, Keystone Scientific).
The method used to measure monoamines was as described by Perry and Fuller (1993). Briefly, dialysate collected in the 20 µl loop was assayed for 5-HT, NE and DA. The 20 µl injection went onto the column with a mobile phase which resolved NE, DA, and 5-HT: 75 mM potassium acetate, 0.5 mM ethylenediaminetetraacetic acid, 1.4 mM sodium octanesulfonic acid and 8% methanol, pH 4.9. The mobile phase for the amine column was delivered with a flow programmable pump at an initial flow rate of 0.2 ml/min increasing to 0.3 ml/min at 5 min then decreasing back to 0.2 ml/min at 26 min with a total run time of 30 min. Flow programming was used to elute the 5-HT within a 25 min time period. The electrochemical detector (EG&G, Model 400) for the amine column was set at a potential of 400 mV and a sensitivity of 0.2 nA/V. The data was collected and analyzed with a Hewlett-Packard HP1000 chromatography system which measured peak heights and calculated sample concentrations. Basal levels were measured for at least 90 minutes prior to drug administration.
Extracellular levels of the amines in microdialysates were calculated by comparing peak heights with those of 50 pmole standards. The mean value of the four samples immediately preceding drug administration served as the basal level for each experiment and data was converted to percent of basal. Paired t-tests were used to compare the mean of the basal values from the time point immediately preceding drug administration to those of each time point thereafter. […]

SMILES: CC(C)NCC(O)COc1cccc2[nH]ccc12 (single isomer, unassigned; (-)) [(-)-pindolol, 4-(2-hydroxy-3-isopropylaminopropoxy)-indole]
- 5-HT, percent of baseline (120 min (time of first (-)-pindolol dose, 5 mg/kg)): 80%
- 5-HT, percent of baseline (150 min, (-)-pindolol 5 mg/kg at 120 min): 90%
- 5-HT, percent of baseline (180 min, (-)-pindolol 5 mg/kg at 120 min): 110%
- 5-HT, percent of baseline (210 min, (-)-pindolol 5 mg/kg at 120 min): 100%
